Amino acid sequences for entries named in this document (tags omitted). A change or cut given only in a name is not applied to a line headed by its entry.
UniProt O15379: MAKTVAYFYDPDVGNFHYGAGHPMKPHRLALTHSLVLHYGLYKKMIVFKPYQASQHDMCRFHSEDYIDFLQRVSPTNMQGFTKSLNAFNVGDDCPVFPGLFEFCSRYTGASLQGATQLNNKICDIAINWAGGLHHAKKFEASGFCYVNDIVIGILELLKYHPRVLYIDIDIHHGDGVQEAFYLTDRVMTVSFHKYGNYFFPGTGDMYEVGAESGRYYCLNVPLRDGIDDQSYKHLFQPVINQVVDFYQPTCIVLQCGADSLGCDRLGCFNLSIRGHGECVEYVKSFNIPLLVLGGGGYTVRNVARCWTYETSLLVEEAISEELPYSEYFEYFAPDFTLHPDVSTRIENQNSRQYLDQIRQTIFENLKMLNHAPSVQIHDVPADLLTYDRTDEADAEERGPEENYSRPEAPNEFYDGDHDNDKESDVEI
UniProt Q92769: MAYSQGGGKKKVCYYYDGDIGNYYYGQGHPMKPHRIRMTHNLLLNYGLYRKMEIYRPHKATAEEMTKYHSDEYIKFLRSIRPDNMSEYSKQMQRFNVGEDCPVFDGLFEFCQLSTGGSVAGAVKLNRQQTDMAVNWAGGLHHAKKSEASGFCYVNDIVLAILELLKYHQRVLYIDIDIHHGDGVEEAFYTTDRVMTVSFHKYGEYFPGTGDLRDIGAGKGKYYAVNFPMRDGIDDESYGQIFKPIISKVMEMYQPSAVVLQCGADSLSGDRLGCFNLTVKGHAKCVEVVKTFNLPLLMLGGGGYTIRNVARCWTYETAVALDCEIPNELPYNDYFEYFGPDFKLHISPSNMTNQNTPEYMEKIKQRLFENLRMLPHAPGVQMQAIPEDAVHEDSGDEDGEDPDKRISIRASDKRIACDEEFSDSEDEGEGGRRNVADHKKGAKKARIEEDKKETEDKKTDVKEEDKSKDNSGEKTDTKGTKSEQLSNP
UniProt Q9UQL6: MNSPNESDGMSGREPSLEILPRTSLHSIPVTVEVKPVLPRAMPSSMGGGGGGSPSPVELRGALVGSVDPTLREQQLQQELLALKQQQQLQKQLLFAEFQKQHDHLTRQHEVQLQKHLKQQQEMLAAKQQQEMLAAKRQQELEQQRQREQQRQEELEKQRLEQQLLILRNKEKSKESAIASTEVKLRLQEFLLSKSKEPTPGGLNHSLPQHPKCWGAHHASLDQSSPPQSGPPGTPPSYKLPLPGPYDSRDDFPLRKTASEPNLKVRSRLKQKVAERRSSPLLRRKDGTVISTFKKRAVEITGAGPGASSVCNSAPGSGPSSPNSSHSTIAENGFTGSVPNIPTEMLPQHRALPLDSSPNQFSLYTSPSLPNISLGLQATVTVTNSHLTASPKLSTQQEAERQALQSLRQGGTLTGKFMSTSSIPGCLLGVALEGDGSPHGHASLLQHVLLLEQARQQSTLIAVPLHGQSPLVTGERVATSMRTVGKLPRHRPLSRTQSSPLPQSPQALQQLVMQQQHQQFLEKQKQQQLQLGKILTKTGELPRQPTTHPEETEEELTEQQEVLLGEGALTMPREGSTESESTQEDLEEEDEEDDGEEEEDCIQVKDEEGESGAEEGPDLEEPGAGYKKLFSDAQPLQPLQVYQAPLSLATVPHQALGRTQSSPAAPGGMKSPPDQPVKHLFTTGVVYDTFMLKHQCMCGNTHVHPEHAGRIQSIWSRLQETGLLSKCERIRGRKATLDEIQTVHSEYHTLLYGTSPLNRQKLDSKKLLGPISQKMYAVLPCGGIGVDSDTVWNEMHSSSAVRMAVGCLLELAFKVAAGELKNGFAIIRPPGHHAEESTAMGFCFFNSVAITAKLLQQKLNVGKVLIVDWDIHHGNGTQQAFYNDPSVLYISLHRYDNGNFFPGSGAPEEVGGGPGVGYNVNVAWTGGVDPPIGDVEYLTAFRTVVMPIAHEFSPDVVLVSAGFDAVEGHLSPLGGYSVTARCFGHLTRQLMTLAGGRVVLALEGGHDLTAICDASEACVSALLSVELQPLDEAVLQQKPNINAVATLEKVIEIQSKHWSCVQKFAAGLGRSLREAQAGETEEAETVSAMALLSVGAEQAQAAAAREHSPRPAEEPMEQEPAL
UniProt Q8WUI4: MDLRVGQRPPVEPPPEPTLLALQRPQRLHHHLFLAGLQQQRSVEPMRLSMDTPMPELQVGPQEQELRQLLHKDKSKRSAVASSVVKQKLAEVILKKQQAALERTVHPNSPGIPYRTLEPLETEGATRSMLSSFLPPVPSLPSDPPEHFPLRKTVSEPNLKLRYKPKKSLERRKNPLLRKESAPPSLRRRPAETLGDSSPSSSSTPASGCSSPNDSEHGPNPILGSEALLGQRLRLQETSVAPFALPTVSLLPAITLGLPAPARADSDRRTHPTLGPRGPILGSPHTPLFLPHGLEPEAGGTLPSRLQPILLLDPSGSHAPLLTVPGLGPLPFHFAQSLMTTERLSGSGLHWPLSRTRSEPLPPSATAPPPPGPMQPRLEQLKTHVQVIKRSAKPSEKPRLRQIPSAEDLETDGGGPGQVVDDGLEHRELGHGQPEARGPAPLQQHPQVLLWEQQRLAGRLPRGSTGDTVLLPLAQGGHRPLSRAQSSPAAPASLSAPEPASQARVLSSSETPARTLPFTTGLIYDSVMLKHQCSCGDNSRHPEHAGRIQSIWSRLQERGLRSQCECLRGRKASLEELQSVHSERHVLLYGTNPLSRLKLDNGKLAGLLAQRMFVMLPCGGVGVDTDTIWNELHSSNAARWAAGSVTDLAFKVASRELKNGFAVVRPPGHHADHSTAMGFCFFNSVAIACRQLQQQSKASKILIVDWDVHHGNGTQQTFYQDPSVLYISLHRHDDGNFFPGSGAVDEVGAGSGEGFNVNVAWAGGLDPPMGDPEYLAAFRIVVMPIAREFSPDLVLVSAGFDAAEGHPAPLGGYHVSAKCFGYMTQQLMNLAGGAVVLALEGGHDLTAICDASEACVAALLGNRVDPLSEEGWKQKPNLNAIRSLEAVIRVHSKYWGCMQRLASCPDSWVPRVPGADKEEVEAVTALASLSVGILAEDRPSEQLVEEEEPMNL
UniProt Q9BY41: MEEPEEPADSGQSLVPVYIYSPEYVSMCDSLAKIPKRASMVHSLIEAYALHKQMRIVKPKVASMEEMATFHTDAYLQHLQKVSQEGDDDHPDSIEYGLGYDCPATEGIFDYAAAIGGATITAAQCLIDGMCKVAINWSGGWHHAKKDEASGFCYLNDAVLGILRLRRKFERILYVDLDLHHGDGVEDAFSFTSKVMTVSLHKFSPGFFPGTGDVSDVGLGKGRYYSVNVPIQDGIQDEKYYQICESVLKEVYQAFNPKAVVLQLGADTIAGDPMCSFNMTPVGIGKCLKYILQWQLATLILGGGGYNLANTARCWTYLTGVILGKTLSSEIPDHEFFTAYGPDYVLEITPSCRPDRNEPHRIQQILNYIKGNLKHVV
UniProt Q96DB2: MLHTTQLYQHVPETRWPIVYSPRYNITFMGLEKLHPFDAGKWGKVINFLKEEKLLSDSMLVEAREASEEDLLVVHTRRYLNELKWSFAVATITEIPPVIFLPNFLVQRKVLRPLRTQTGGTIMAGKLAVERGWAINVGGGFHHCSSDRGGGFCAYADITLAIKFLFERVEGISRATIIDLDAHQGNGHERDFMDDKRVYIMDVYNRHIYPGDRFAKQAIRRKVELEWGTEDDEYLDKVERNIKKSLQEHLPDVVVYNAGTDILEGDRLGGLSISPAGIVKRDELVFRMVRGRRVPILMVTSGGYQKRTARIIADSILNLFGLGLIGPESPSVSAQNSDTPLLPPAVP
UniProt P56524: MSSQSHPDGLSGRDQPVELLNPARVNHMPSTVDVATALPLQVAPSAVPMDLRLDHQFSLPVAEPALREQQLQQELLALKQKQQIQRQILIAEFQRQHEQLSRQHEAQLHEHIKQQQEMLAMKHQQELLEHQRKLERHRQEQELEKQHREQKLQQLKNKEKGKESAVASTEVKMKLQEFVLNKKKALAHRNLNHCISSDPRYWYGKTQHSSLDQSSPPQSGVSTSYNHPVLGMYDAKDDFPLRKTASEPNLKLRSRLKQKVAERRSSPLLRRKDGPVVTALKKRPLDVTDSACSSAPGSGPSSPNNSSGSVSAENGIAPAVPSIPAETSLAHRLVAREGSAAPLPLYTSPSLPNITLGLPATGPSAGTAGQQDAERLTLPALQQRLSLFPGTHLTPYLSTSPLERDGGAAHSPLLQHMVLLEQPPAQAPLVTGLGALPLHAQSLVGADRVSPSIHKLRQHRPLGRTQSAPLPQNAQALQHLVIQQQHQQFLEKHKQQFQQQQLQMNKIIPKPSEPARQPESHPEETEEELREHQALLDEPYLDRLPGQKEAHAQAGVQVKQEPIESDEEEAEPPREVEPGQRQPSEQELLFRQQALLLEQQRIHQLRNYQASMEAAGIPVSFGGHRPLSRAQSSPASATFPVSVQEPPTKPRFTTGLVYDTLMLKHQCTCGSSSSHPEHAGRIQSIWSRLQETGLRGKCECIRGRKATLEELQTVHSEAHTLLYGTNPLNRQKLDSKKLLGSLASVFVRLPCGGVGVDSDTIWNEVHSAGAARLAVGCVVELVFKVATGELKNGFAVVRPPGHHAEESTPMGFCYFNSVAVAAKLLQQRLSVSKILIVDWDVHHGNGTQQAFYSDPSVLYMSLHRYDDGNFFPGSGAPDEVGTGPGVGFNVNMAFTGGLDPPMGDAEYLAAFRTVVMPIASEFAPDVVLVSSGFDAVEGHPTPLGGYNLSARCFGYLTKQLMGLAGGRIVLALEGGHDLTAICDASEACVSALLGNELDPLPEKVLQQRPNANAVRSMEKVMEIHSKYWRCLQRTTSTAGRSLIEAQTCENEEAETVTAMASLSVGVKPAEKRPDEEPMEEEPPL
UniProt Q9UKV0: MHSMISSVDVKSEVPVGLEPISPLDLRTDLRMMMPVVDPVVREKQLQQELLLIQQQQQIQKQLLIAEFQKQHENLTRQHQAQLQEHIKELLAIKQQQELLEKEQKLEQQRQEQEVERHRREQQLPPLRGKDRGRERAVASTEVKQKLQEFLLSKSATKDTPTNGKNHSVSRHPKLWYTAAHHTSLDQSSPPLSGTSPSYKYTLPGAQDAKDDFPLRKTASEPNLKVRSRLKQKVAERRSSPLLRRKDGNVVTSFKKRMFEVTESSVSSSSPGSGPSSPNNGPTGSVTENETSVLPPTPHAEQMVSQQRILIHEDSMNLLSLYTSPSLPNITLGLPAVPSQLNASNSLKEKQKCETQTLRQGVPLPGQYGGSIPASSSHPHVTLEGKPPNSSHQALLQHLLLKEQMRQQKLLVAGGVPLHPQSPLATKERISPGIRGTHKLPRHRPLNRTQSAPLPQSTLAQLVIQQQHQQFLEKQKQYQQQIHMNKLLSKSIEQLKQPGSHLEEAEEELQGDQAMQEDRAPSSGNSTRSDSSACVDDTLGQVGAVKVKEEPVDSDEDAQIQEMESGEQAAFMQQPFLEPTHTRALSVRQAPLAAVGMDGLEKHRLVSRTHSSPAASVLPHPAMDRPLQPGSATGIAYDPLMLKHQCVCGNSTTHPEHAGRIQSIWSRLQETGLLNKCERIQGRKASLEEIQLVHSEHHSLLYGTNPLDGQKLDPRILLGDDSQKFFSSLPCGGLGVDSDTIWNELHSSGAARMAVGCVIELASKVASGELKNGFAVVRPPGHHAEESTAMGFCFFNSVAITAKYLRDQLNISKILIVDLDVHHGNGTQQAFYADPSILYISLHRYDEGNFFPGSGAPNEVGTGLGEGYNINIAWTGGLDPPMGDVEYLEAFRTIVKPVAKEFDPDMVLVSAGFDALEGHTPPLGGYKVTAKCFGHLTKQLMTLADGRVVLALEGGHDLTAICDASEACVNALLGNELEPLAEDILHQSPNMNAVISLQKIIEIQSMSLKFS
UniProt Q969S8: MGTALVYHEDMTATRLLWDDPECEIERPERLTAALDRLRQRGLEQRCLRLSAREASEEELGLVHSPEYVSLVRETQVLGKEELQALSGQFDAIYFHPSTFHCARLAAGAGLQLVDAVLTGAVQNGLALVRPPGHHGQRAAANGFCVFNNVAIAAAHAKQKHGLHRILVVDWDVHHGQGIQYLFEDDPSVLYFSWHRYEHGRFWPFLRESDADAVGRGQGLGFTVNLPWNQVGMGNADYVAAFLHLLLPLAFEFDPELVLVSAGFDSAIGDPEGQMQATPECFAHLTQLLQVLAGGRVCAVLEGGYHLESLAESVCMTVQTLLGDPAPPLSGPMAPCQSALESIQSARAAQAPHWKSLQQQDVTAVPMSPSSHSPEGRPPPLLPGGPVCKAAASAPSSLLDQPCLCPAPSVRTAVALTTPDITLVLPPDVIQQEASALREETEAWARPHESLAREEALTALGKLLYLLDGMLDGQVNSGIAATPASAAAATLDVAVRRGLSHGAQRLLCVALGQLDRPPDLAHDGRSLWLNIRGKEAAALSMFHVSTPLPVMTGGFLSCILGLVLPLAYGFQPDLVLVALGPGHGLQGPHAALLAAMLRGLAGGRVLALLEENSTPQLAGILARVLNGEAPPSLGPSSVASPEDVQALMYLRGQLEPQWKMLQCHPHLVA

According to ChEMBL document CHEMBL3217617 (Medchemcomm, 2012):

Assays:
[1] = molecular target: Histone deacetylase (Homo sapiens) (UniProt Q13547+O15379+Q9UBN7+Q92769+Q9UQL6+Q8WUI4+Q9BY41+Q96DB2+P56524+Q9UKV0+Q969S8); test: Ratio of SAHA IC50 to compound IC50 for HDAC in human HeLa cell nuclear extracts using Ac-NH-GGK(Ac)-AMC as substrate after 180 mins by fluorescence assay; type: protein assay
Histone deacetylase 1 = Histone deacetylase 1 (Homo sapiens, UniProt Q13547); test: Ratio of SAHA IC50 to compound IC50 for human recombinant HDAC1 expressed in human HEK293 cells using Ac-NH-GGK(Ac)-AMC as substrate after 180 mins by fluorescence assay; type: cell-based

## C#Cc1cccc(Nc2ncnc3ccc(S(=O)(=O)n4ccc(/C=C/C(=O)NO)c4)cc23)c1
[1]
  Ratio IC50: 10
Histone deacetylase 1
  Ratio IC50: 10
